Test results published in patent US20110045982A1, “HERBICIDAL COMPOSITION” (NOF CORPORATION, priority 2009, published 2011).

Test system: Japanese white rabbits
Conditions: hydrolysate of base compound, 50% in purified water, 0.1 mL instilled, three male rabbits; observed 1, 6, 12 and 24 hr
Method: Assuming that the base compound is hydrolyzed in the natural world, the biological reaction of hydrolysate was evaluated by eye irritancy. To be specific, the base compound (10 g) shown in Table 1 was added to 100 mL of water, and the mixture was adjusted to pH 10 with an aqueous sodium hydroxide solution. The mixture was placed in a flask, heated to 80° C., and stirred for 1 hr while adding an aqueous sodium hydroxide solution as appropriate every 10 min to maintain pH 10. The mixture was adjusted to pH 3.5 with an aqueous hydrochloric acid solution, and the mixture was washed 3 times with hexane to remove fatty acid. The solution was neutralized with an aqueous sodium hydroxide solution, evaporated and filtered to remove sodium chloride. The viscous liquid was diluted with purified water to a concentration of 50% and used as an eye irritancy measurement sample.
Using three male Japanese white rabbits per sample, the above-mentioned eye irritancy measurement sample (0.1 mL) was instilled into the unilateral intracapsular conjunctiva of each test animal, and the upper and lower eyelids were gently closed and maintained for about 1 sec. The other eye was used as control without treatment. After instillation, the cornea, iris, conjunctiva and the like were observed 1, 6, 12 and 24 hr later.

Substance: Glycerol dicaprylic acid ester [Ex. 2]
- eye irritancy of hydrolysate: no problem

Substance: Glycerol monocapric acid ester [Ex. 6]
- eye irritancy of hydrolysate: no problem

Substance: Glycerol monocaproic acid ester [Ex. 5]
- eye irritancy of hydrolysate: no problem

Substance: Glycerol monocaprylic acid ester [Ex. 4]
- eye irritancy of hydrolysate: no problem

Substance: Glycerol sesquicaprylic acid ester [Ex. 3]
- eye irritancy of hydrolysate: no problem
